Laboratory results published in PubChem BioAssay AID2417 (National Center for Advancing Translational Sciences (NCATS), 2010).
Only a part is listed here, and it is no random draw. Some of these compounds have results that are not shown, active ones among them. Records with an inconclusive call do not appear. Calls of active or inactive are those of the source.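 Rule for the calls: active = readout at or below -70, meaning at least 70% loss of cells showing the perinucleolar compartment, a nuclear body marking cancer cells; inconclusive = readout between -30 and a set limit; inactive = the rest.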

test: High Content Assay for Compounds that inhibit the Assembly of the Perinucleolar Compartment; settings: PC3M PTB-GFP, PNC prevalence imaging, 16 h; at 10 µM; stronger effect = lower value;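 note: plate controls were DMSO wells for no effect and camptothecin positive control wells for full effect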
Source text: High Content Assay for Compounds that inhibit the Assembly of the Perinucleolar Compartment NIH Chemical Genomics Center [NCGC] NIH Molecular Libraries Probe Centers Network [MLPCN] MLPCN Grant: MH082371-01A2 Assay Submitter (PI): Sui Huang, Northwestern University, Feinberg School of Medicine, Cell and Molecular Biology, Chicago, Illinois. The perinucleolar compartment (PNC) is a non-membrane-bound nuclear subdomain that is associated with but structurally distinct from the nucleolus. The PNC is a heritable trait, in which the number of PNCs per cell in daughter cells often mimics that of their mother cells. The PNC is heterogeneous in shape, is stable through interphase, disassembles during mitosis, and reassembles in early G1. The PNC is concentrated with newly synthesized RNA polymerase III (pol III) RNAs (MRP RNA, RNAse P H1 RNA, hY RNAs[hY1, 2, 5], Alu RNA, and SRP [7SL] RNA) and RNA binding proteins (nucleolin, PTB, CUG-BP, KSRP, Raver1, Raver2, and Rod). […] Extensive in vitro studies have shown that the PNC is unique to tumor cells and preferentially forms in tumor cells derived from solid tissues. Examination of cancer cell lines from various origins and malignant capacities has shown that PNC prevalence correlates with the malignancy of tumors and has the potential to be developed as a pan-cancer prognostic marker. […] Although the PNC is associated with a DNA locus and a handful of components have been identified, much remains to be investigated regarding the structure and function of the PNC and its mechanistic link to cancer. We have previously shown that PNC prevalence reduction is a valid strategy to identify compounds that can be used to study the structure and function of the PNC. It is necessary, however, to create a screening platform that is able to test a large number of compounds in an automated fashion. […]
PNC High Content Imaging Assay Procedure: 1. […] PNC prevalence was determined using the Multitarget analysis module from InCell Workstation software (V3.5 ) and analysis was run on a quad core workstation using the Incell Developer Toolbox (V1.7). […]

Compound	activity change (PNC), negative = inhibition
CN(C)c1cccc(C(=O)NCC2(N(C)C)CCCCC2)c1	inactive: -19.4%
CC(C)N1C(=O)CC2(CCN(CCOC(=O)C(O)(c3ccccc3)c3ccccc3)CC2)C1=O	inactive: 61.4%
CN(C)C1CCCC1OC(=O)C(O)(c1ccccc1)c1ccccc1 (stereo not drawn)	inactive: -1.56%
